{"sequences": {"note": "Chains of the proteins cited; added tags and fusions are not shown. Residues count along the entry.", "UniProt P10276, whole entry": "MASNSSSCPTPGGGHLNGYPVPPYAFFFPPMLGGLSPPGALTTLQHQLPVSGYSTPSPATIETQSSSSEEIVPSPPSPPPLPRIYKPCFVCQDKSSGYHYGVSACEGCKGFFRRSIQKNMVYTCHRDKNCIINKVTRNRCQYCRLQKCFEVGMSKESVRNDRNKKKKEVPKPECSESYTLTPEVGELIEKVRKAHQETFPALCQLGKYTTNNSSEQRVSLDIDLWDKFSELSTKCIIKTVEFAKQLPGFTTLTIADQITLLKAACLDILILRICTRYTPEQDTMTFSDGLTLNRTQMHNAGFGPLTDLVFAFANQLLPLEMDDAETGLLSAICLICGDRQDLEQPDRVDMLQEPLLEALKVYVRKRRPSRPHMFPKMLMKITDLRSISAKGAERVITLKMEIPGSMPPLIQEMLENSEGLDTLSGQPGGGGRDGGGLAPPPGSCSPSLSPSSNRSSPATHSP", "UniProt P10826, 1-448 isoform P10826-2": "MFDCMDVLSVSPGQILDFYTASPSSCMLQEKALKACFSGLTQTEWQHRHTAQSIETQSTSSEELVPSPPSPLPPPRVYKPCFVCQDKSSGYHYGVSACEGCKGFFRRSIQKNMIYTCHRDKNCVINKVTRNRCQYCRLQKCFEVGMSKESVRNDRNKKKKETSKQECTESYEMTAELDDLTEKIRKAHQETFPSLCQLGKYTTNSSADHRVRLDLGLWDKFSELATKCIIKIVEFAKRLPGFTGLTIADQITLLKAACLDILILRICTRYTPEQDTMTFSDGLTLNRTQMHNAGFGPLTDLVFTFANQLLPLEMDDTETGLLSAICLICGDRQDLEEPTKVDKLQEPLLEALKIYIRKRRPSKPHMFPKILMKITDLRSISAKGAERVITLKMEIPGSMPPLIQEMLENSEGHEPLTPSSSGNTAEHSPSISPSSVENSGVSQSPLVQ", "UniProt P13631, whole entry": "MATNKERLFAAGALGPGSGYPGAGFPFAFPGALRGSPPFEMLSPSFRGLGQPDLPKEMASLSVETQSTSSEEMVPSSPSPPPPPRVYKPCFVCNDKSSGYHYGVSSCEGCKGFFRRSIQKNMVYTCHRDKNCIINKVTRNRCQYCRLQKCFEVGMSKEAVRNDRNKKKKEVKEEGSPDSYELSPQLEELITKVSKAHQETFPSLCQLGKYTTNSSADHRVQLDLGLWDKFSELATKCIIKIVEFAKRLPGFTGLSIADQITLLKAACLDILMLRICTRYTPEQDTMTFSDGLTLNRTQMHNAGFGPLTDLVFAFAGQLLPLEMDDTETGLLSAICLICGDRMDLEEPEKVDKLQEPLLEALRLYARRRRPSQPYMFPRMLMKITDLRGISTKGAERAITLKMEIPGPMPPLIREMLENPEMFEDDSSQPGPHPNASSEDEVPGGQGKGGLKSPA"}, "source": "patent US6043279A", "about": "“Compounds having selective activity for retinoid X receptors, and means for modulation of processes mediated by retinoid X receptors” (priority 1997, dated 2000)", "key": {"RXRγ": {"target": "T1, RXRγ (Mus musculus, UniProt P28705)", "T1 sequence (P28705 1-463)": "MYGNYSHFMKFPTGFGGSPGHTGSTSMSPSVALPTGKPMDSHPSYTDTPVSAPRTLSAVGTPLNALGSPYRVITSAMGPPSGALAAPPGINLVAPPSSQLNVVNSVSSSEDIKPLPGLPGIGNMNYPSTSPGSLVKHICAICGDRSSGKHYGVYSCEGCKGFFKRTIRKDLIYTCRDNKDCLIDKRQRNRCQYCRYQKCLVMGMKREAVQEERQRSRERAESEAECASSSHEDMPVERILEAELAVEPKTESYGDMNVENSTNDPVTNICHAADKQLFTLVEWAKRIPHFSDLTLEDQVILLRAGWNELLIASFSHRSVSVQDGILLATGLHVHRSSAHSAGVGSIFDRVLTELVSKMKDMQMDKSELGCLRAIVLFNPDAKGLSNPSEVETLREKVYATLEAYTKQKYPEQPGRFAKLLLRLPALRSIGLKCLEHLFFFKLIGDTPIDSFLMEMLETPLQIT", "test": "co-transfection (cis-trans) assay in CV-1 cells, RXRγ", "details": "CV-1, read-out: Efficacy RXRγ"}, "RARα": {"target": "RARα (Homo sapiens, UniProt P10276)", "test": "co-transfection (cis-trans) assay in CV-1 cells, RARα", "details": "10 µM"}, "RARβ": {"target": "RARβ (Homo sapiens, UniProt P10826)", "test": "co-transfection (cis-trans) assay in CV-1 cells, RARβ", "details": "maximal response relative to all-trans-retinoic acid at 10^-5 M; 10 µM"}, "RARγ": {"target": "RARγ (Homo sapiens, UniProt P13631)", "test": "co-transfection (cis-trans) assay in CV-1 cells, RARγ", "details": "10 µM"}}, "data": [{"smiles": "CC1=C(/C=C/C(C)=C\\C=C\\C(C)=C\\C(=O)O)C(C)(C)CCC1", "note": "[reference compound]", "values": [{"measurement": "Emax at 10 µM", "setting": "RXRγ", "result": 140, "unit": "%"}, {"measurement": "Efficacy RARα", "setting": "RARα", "result": 100, "unit": "%"}, {"measurement": "Efficacy RARβ", "setting": "RARβ", "result": 82, "unit": "%"}, {"measurement": "Efficacy RARγ", "setting": "RARγ", "result": 120, "unit": "%"}]}]}
